Measured values: PubChem BioAssay AID2025 (NMMLSC, 2009)
The entries are a selection whose mix differs from that of the whole data set. Some structures show a salt or complex split into parts, the way the source records it. Calls of active or inactive are those of the source.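 The calls were made as follows: active = percent response vs DMSO below 50%; inconclusive = fewer than 70 events counted for the yeast strain; inactive = the rest.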

test: compounds altering RPL19A-GFP fluorescence, TOR branch – cell-based, S. cerevisiae, multiplex flow cytometry, MLPCN, primary screen (AID 2025);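 also: median channel GFP fluorescence of the barcoded RPL19A-GFP strain; ratio of sample median GFP to plate DMSO average so 100% = DMSO; lower means less RPL19A-GFP as with rapamycin TOR inhibition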; details: S. cerevisiae RPL19A-GFP strain, 3 h, at 10 µM, stronger effect = lower value

SMILES | percent response vs DMSO
CCOP(C)(=S)SCC(=O)NC(C)(CC)C(=O)O (stereo unspecified) | inactive: 103%
CP(=O)(Nc1ccc(SC(F)(F)F)cc1)Oc1ccc(F)cc1 (stereo unspecified) | inactive: 103%
CP(=O)(Nc1ccc2c(c1)OCCO2)Oc1ccccc1 (stereo unspecified) | inactive: 92.7%
CN(C)CCOC(=O)C(O)(c1ccccc1)C1CCCCC1 (stereo unspecified) | inactive: 104%
COc1ccc(NP(C)(=O)Oc2ccccc2OC)cc1 (stereo unspecified) | inactive: 100%
COc1ccc(OP(C)(=O)Nc2cccc(Br)c2)cc1 (stereo unspecified) | inactive: 96.1%
O=[N+]([O-])c1ccc(OP2(=O)COCCO2)cc1 (stereo unspecified) | inactive: 100%
O=[N+]([O-])c1cc([N+](=O)[O-])c(NCC2CCS(=O)(=O)C2)c([N+](=O)[O-])c1 (stereo unspecified) | inactive: 102%
CCOC(=O)c1ccc(NP(C)(=O)Oc2ccc(F)cc2)cc1 (stereo unspecified) | inactive: 104%
COc1ccc(OP(C)(=O)Nc2ccc(SC(F)(F)F)cc2)cc1 (stereo unspecified) | inactive: 99%
CP(=O)(Nc1ccccc1)Oc1ccc(F)cc1 (stereo unspecified) | inactive: 100%
CCCCCOc1ccc(NP(C)(=O)Oc2ccc(Cl)cc2Cl)cc1 (stereo unspecified) | inactive: 95.7%
O=[N+]([O-])c1cc([N+](=O)[O-])c(OC2CCCCC2O)c([N+](=O)[O-])c1 (stereo unspecified) | inactive: 103%
CCN(CC)CCCOC(=O)C(O)(c1ccccc1)C1CCCCC1 (stereo unspecified) | inactive: 105%
CP(=O)(Nc1ccccc1F)Oc1ccccc1 (stereo unspecified) | inactive: 119%
CC(C)c1ccc(OP(C)(=O)Nc2ccc(SC(F)(F)F)cc2)cc1 (stereo unspecified) | inactive: 106%
COc1ccc2c(c1O)-c1c(O)c(OC)cc3c1[C@H](C2)[N+](C)(C)CC3.O=[N+]([O-])c1cc([N+](=O)[O-])c([O-])c([N+](=O)[O-])c1[O-] | inactive: 104%
O=C(OC1CN2CCC1CC2)c1ccc([N+](=O)[O-])cc1 (stereo unspecified) | inactive: 97.8%
O=C(OCCN1CCN(CCOCc2ccccc2)CC1)C(O)(c1ccccc1)c1ccccc1 | inactive: 101%
CCOC(=O)c1ccc(NP(C)(=O)Oc2cc(C)cc(C)c2)cc1 (stereo unspecified) | inactive: 102%
Cc1cc(C)cc(OP(C)(=O)Nc2ccc(C)cc2C)c1 (stereo unspecified) | inactive: 94.5%

SMILES | percent response vs DMSO
COc1ccccc1OP(C)(=O)Nc1cccc(Br)c1 (stereo unspecified) | inactive: 99.1%
Cc1ccc(C)c(NP(C)(=O)Oc2ccccc2)c1 (stereo unspecified) | inactive: 96%
Cc1cc(C)cc(OP(C)(=O)Nc2ccccn2)c1 (stereo unspecified) | inactive: 94.3%
CP(=O)(Nc1cccc(Br)c1)Oc1ccccc1 (stereo unspecified) | inactive: 98.8%
O=C(O)c1cccc(Nc2c([N+](=O)[O-])cc([N+](=O)[O-])cc2[N+](=O)[O-])c1 | inactive: 98.5%
CC1=NCCc2c1[nH]c1ccccc21.O=[N+]([O-])c1cc([N+](=O)[O-])c(O)c([N+](=O)[O-])c1 | inactive: 90.1%
CCOC(=O)C(CC)C1=NC(C)(C)Cc2ccccc21.O=[N+]([O-])c1cc([N+](=O)[O-])c(O)c([N+](=O)[O-])c1 (stereo unspecified) | inactive: 99.4%
CC1=C2N=C(C=C3N=C(C(C)=C4[N-][C@@](C)([C@@H]5N=C1[C@](C)(CCC(=O)NC[C@@H](C)OP(=O)([O-])O[C@H]1[C@@H](O)[C@@H](n6cnc7cc(C)c(C)cc76)O[C@@H]1CO)[C@H]5CC(N)=O)[C@@](C)(CC(N)=O)[C@@H]4CCC(N)=O)[C@@](C)(CC(N)=O)[C@@H]3CCC(N)=O)C(C)(C)[C@@H]2CCC(N)=O.[C-]#N.[Co+3] | inactive: 89.2%
O=[N+]([O-])c1cc([N+](=O)[O-])c(Nc2nnnn2CCO)c([N+](=O)[O-])c1 | inactive: 101%
CCCOc1ccc(NP(C)(=O)Oc2ccc(Cl)cc2)cc1 (stereo unspecified) | inactive: 103%
CP(=O)(Nc1ccc(SC(F)(F)F)cc1)Oc1ccccc1 (stereo unspecified) | inactive: 101%
COc1ccccc1OP(C)(=O)Nc1c(C)cccc1C (stereo unspecified) | inactive: 98%
CN1CCCCC1COC(=O)C1(O)c2ccccc2CCc2ccccc21 (stereo unspecified) | inactive: 101%
O=[N+]([O-])c1cc([N+](=O)[O-])c(-n2nnc3ccccc32)c([N+](=O)[O-])c1 | inactive: 91.6%
Cc1nc2ccc3ccccc3c2s1.O=[N+]([O-])c1cc([N+](=O)[O-])c(O)c([N+](=O)[O-])c1 | inactive: 96.6%
O=[N+]([O-])c1cc([N+](=O)[O-])c(-c2cnn(-c3ccccc3)c2)c([N+](=O)[O-])c1 | inactive: 95.3%
Cc1cc(C)cc(OP(C)(=O)Nc2ccc(SC(F)(F)F)cc2)c1 (stereo unspecified) | inactive: 108%
CP(=O)(NC(=O)Nc1ccccc1)Oc1ccccc1 (stereo unspecified) | inactive: 94%
CCc1ccc(OP(C)(=O)N2CCN(c3ccc([N+](=O)[O-])cc3)CC2)cc1 (stereo unspecified) | inactive: 101%
CP(=O)(Oc1ccccc1)OC(c1ccccc1)C(F)(F)F (stereo unspecified) | inactive: 97.7%
Cc1cccc(C)c1OP(C)(=O)Nc1ccc(SC(F)(F)F)cc1 (stereo unspecified) | inactive: 97.1%

SMILES | percent response vs DMSO
CP(=O)(Nc1ccc(SC(F)(F)F)cc1)Oc1ccc(Cl)cc1 (stereo unspecified) | inactive: 96.4%
CP(=O)(Nc1ccccn1)Oc1ccc(Cl)cc1 (stereo unspecified) | inactive: 90.5%
CCOC(=O)c1ccc(NP(C)(=O)Oc2ccc(OC)cc2)cc1 (stereo unspecified) | inactive: 102%
O=[N+]([O-])c1cc([N+](=O)[O-])c(O)c([N+](=O)[O-])c1.c1ccc(Oc2ccncc2)cc1 | inactive: 95.3%
CCOP(C)(=S)SCC(=O)NC(C)C(=O)O (stereo unspecified) | inactive: 106%
CP(=O)(Nc1ccccc1Br)Oc1ccccc1 (stereo unspecified) | inactive: 98%
COc1ccccc1OP(C)(=O)Nc1ccccc1 (stereo unspecified) | inactive: 97.7%
CP(=S)(Nn1cnnc1)Oc1ccccc1 (stereo unspecified) | inactive: 98.8%
O=[N+]([O-])c1ccc2c(c1)C=Nc1ccccc1O2 | inactive: 107%
Cc1cccc(C)c1OP(C)(N)=O (stereo unspecified) | inactive: 105%
CC(C)(C)c1ccc(OP(C)(=O)Nc2ccc(SC(F)(F)F)cc2)cc1 (stereo unspecified) | inactive: 102%
O=[N+]([O-])c1cc([N+](=O)[O-])c(Nc2cccnc2)c([N+](=O)[O-])c1 | inactive: 95%
Cc1cc(C)cc(OP(C)(N)=O)c1 (stereo unspecified) | inactive: 104%
COc1ccc(OP(C)(=O)Nc2cccc(F)c2)cc1 (stereo unspecified) | inactive: 99.7%
COc1ccccc1OP(C)(=O)Nc1cc(Cl)ccc1C (stereo unspecified) | inactive: 102%
Cc1ccc(NP(C)(=O)Oc2ccccc2)c(C)c1 (stereo unspecified) | inactive: 93.8%
COc1ccccc1OP(C)(=O)Nc1ccc(C)cc1 (stereo unspecified) | inactive: 88.8%
CCOC(=O)c1ccc(NP(C)(=O)Oc2ccccc2)cc1 (stereo unspecified) | inactive: 102%
CCN(CC)CCCOC(=O)C(O)(c1ccccc1)c1ccccc1 | inactive: 101%
